Measurements: patent US5567716A, “Trans and cis traumatic acid salts having cicatrizant activity associated to bacteriostatic, antiviral, antibiotic or antifungal activity” (priority 1992, dated 1996)

Test: Physical chemical characteristics: solubility in water and organic solvents

Substance	organic solvent solubility (in ethanol)	solubility in water	organic solvent solubility (in DMSO)
hexadecyltrimethylammonium trans-traumatate [Hexadecyltrimethyl Ammonium Traumatate]	> 20000 µg/mL	> 10000 µg/mL	–
gentamycin trans-traumatate [Gentamycin Traumatate]	–	> 10000 µg/mL	> 10000 µg/mL
